Assay results reported in US20070270455A1, “INHIBITION OF NF-kB” (priority 2005, published 2007).

System: RCC54
Assay: Global gene expression profile by microarray hybridization, RCC54
Type: cell-based
Settings: 16 hours

Nc1c2ccccc2nc2ccccc12 [9AA, 9-aminoacridine]
Relative expression compared to untreated cells: Activating transcription factor 3 (9AA 2 μM): 1.07
Relative expression compared to untreated cells: Amyloid beta (A4) precursor-like protein 2 (9AA 2 μM): 1.19
Relative expression compared to untreated cells: Annexin A1 (9AA 2 μM): 1.01
Relative expression compared to untreated cells: Apoptotic protease activating factor (9AA 2 μM): 0.78
Relative expression compared to untreated cells: BCL2 binding component 3 (PUMA) (9AA 2 μM): 1.03
Relative expression compared to untreated cells: BTG family member 2 (9AA 2 μM): 1.44
Relative expression compared to untreated cells: CD44 antigen (homing function and Indian blood group system) (9AA 2 μM): 0.88
Relative expression compared to untreated cells: Carboxylesterase 2 (intestine, liver) (9AA 2 μM): 0.80
Relative expression compared to untreated cells: Chemokine (C-C motif) ligand 2 (9AA 2 μM): 0.64
Relative expression compared to untreated cells: Chemokine (C-C motif) ligand 20 (9AA 2 μM): 0.64
Relative expression compared to untreated cells: Chemokine (C-X-C motif) ligand 1 (melanoma growth stimulating activity, alpha) (9AA 2 μM): 0.40
Relative expression compared to untreated cells: Chemokine (C-X-C motif) ligand 6 (granulocyte chemotactic protein 2) (9AA 2 μM): 1.22
Relative expression compared to untreated cells: Chemokine-like factor super family 3 (9AA 2 μM): 0.87
Relative expression compared to untreated cells: Cyclin D1 (PRAD1: parathyroid adenomatosis 1) (9AA 2 μM): 0.77
Relative expression compared to untreated cells: Cyclin-dependent kinase inhibitor 1A (p21, Cip1) (9AA 2 μM): 1.25
Relative expression compared to untreated cells: Damage-specific DNA binding protein 2, 48 kDa (9AA 2 μM): 0.89
Relative expression compared to untreated cells: Growth arrest and DNA-damage-inducible, beta (9AA 2 μM): 1.22
Relative expression compared to untreated cells: Heat shock 27 kDa protein 1 (9AA 2 μM): 0.82
Relative expression compared to untreated cells: Interleukin 8 (9AA 2 μM): 0.62
Relative expression compared to untreated cells: KILLER/DR5 (9AA 2 μM): 1.1
Relative expression compared to untreated cells: Leucine-rich repeats and death domain containing (9AA 2 μM): 1.12
Relative expression compared to untreated cells: Mdm2, transformed 3T3 cell double minute 2, p53 binding protein (mouse) (9AA 2 μM): 0.96
Relative expression compared to untreated cells: Nuclear factor of kappa light polypeptide gene enhancer in B-cells inhibitor, alpha (9AA 2 μM): 0.73
Relative expression compared to untreated cells: Ribonucleotide reductase M2 B (TP53 inducible) (9AA 2 μM): 1.11
Relative expression compared to untreated cells: Tenascin C (hexabrachion) (9AA 2 μM): 0.70
Relative expression compared to untreated cells: Thiosulfate sulfurtransferase (rhodanese) (9AA 2 μM): 1.18
Relative expression compared to untreated cells: Tumor necrosis factor receptor superfamily, member 9 (9AA 2 μM): 0.63
Relative expression compared to untreated cells: Tumor necrosis factor, alpha-induced protein 6 (9AA 2 μM): 1.26
Relative expression compared to untreated cells: Tumor protein p53 inducible nuclear protein 1 (9AA 2 μM): 1.03
Relative expression compared to untreated cells: V-myc myelocytomatosis viral oncogene homolog (avian) (9AA 2 μM): 1.19
Relative expression compared to untreated cells: Vascular cell adhesion molecule 1 (9AA 2 μM): 0.88
Relative expression compared to untreated cells: Activating transcription factor 3 (9AA 10 μM): 3.56
Relative expression compared to untreated cells: Amyloid beta (A4) precursor-like protein 2 (9AA 10 μM): 1.68
Relative expression compared to untreated cells: Annexin A1 (9AA 10 μM): 3.04
Relative expression compared to untreated cells: Apoptotic protease activating factor (9AA 10 μM): 1.27
Relative expression compared to untreated cells: BCL2 binding component 3 (PUMA) (9AA 10 μM): 1.57
Relative expression compared to untreated cells: BTG family member 2 (9AA 10 μM): 1.88
Relative expression compared to untreated cells: CD44 antigen (homing function and Indian blood group system) (9AA 10 μM): 0.65
Relative expression compared to untreated cells: Carboxylesterase 2 (intestine, liver) (9AA 10 μM): 1.75
Relative expression compared to untreated cells: Chemokine (C-C motif) ligand 2 (9AA 10 μM): 0.26
Relative expression compared to untreated cells: Chemokine (C-C motif) ligand 20 (9AA 10 μM): 0.26
Relative expression compared to untreated cells: Chemokine (C-X-C motif) ligand 1 (melanoma growth stimulating activity, alpha) (9AA 10 μM): 0.08
Relative expression compared to untreated cells: Chemokine (C-X-C motif) ligand 6 (granulocyte chemotactic protein 2) (9AA 10 μM): 0.11
Relative expression compared to untreated cells: Chemokine-like factor super family 3 (9AA 10 μM): 0.56
Relative expression compared to untreated cells: Cyclin D1 (PRAD1: parathyroid adenomatosis 1) (9AA 10 μM): 0.29
Relative expression compared to untreated cells: Cyclin-dependent kinase inhibitor 1A (p21, Cip1) (9AA 10 μM): 3.80
Relative expression compared to untreated cells: Damage-specific DNA binding protein 2, 48 kDa (9AA 10 μM): 1.38
Relative expression compared to untreated cells: Growth arrest and DNA-damage-inducible, beta (9AA 10 μM): 2.78
Relative expression compared to untreated cells: Heat shock 27 kDa protein 1 (9AA 10 μM): 1.30
Relative expression compared to untreated cells: Interleukin 8 (9AA 10 μM): 0.09
Relative expression compared to untreated cells: KILLER/DR5 (9AA 10 μM): 1.9
Relative expression compared to untreated cells: Leucine-rich repeats and death domain containing (9AA 10 μM): 2.12
Relative expression compared to untreated cells: Mdm2, transformed 3T3 cell double minute 2, p53 binding protein (mouse) (9AA 10 μM): 2.86
Relative expression compared to untreated cells: Nuclear factor of kappa light polypeptide gene enhancer in B-cells inhibitor, alpha (9AA 10 μM): 0.54
Relative expression compared to untreated cells: Ribonucleotide reductase M2 B (TP53 inducible) (9AA 10 μM): 3.53
Relative expression compared to untreated cells: Tenascin C (hexabrachion) (9AA 10 μM): 0.59
Relative expression compared to untreated cells: Thiosulfate sulfurtransferase (rhodanese) (9AA 10 μM): 3.59
Relative expression compared to untreated cells: Tumor necrosis factor receptor superfamily, member 9 (9AA 10 μM): 0.85
Relative expression compared to untreated cells: Tumor necrosis factor, alpha-induced protein 6 (9AA 10 μM): 0.48
Relative expression compared to untreated cells: Tumor protein p53 inducible nuclear protein 1 (9AA 10 μM): 1.61
Relative expression compared to untreated cells: V-myc myelocytomatosis viral oncogene homolog (avian) (9AA 10 μM): 0.40
Relative expression compared to untreated cells: Vascular cell adhesion molecule 1 (9AA 10 μM): 0.53
